{"sequences": {"note": "By UniProt entry, the sequences of proteins in these tests, tags left out. Where a name states a change or a piece, a line headed by the entry shows the natural chain unless it says otherwise.", "UniProt Q62758": "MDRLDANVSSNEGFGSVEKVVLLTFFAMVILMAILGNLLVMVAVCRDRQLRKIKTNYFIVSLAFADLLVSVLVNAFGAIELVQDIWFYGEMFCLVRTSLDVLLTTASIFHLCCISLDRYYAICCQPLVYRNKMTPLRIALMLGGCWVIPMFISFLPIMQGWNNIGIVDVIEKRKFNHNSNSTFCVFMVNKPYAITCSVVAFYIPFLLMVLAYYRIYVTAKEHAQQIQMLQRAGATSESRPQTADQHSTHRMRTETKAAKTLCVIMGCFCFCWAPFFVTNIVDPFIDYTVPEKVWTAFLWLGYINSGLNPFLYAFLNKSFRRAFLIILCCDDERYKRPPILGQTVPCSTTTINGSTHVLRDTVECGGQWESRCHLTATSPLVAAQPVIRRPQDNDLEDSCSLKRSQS"}, "source": "patent US5852014A", "about": "“Condensed indole derivatives as 5HT4 -receptor antagonists” (SmithKline Beecham p.l.c., priority 1992, dated 1998)", "key": {"[1]": {"target": "T1, 5-HT4 receptor (Rattus norvegicus, UniProt Q62758)", "T1 construct": "The inner smooth muscle tube of the muscularis mucosae is isolated; from tissue; host or cells: rat oesophageal tunica muscularis mucosae", "assay": "Rat oesophagus: relaxation of carbachol-contracted tunica muscularis mucosae", "conditions": "n=18", "text": "Rat oesophageal tunica muscularis mucosae is set up according to Baxter et. al. Naunyn-Schmiedeberg's Arch. Pharmacol., 343, 439-446 (1991). […] In contrast to the guinea-pig colon model, where the 5-HT4 receptor is neuronally-located, the receptor here is located on the smooth muscle."}, "[2]": {"test_system": "5-HT4 receptor over the other receptors tested"}, "[3]": {"test_system": "anxiolytic activity", "assay": "Social interaction test in rats", "format": "in vivo, rat", "conditions": "vs chlordiazepoxide 5 mg.kg^-1 po", "description": "IN VIVO TESTING FOR ANXIOLYTIC ACTIVITY\nSocial Interaction Test in Rats\nRats (male, Sprague Dawleys, Charles River, 250-300 g) are housed in groups of eight in a holding room for 5 days. They are then housed singly in a room adjacent to the experimental room for 4 days prior to the experimental day. On the experimental day rats are administered vehicle, test compound or a benzodiazepine anxiolytic, chlordiazepoxide, p.o. in pairs (n=8-16), at 15 minute intervals beginning at 10.00 a.m. […] The box is made of white perspex 54 cm×37 cm×26 cm with a transparent perspex front side and no lid. The floor is divided up into 24 squares and the box is brightly lit (115 lux). Active social interactive behaviours (grooming, sniffing, climbing over or under, following, biting, mounting and boxing) are scored blind for the next 15 min by remote video monitoring to give total interaction scores. The number of squares crossed by each rat is also scored and summed. After the end of each test the box is carefully wiped."}}, "data": [{"smiles": "NCCc1c[nH]c2ccc(O)cc12", "note": "[5-HT, 5-hydroxytryptamine, reference compound]", "values": [{"measurement": "pEC50 (relaxation)", "setting": "[1]", "result": "8.1±0.03"}]}, {"smiles": "CCCCN1CCC(CNC(=O)c2c3n(c4ccccc24)CCCO3)CC1", "note": "[SB-207266-A, N-[(1-^n Butyl-4-piperidyl)methyl]-3,4-dihydro-2 H-[1,3]oxazino[3,2-a]indole-10-Carboxamide]", "values": [{"measurement": "selectivity for the 5-HT4 receptor over the other receptors tested", "setting": "[2]", "result": "several orders of magnitude"}, {"measurement": "magnitude of effect relative to chlordiazepoxide", "setting": "[3]", "result": "somewhat smaller than that of the positive control chlordiazepoxide (CDP; 5 mg.kg^-1 po) but not significantly so"}]}]}
